Data published in ChEMBL document CHEMBL1125773, “Analogues of oxybutynin. Synthesis and antimuscarinic and bladder activity of some substituted 7-amino-1-hydroxy-5-heptyn-2-ones and related compounds” (1991).

Legend:
Cavia porcellus [1] = species on record: Cavia porcellus; assay: Antimuscarinic effect determined by comparing ability to inhibit carbachol-induced guinea pig detrusor muscle contractions; format: functional
Cavia porcellus [2] = assay: Effect on in vivo functional detrusor muscle contraction strength using guinea pig model of cystometrogram; conditions: Muscle tissue

## CC(C)(C)NCC#CCCC(=O)C(O)(c1ccccc1)C1CCCCC1 (configuration not stated)
Cavia porcellus [1]
  Kb: 4.3 µM
Cavia porcellus [2]
  Potency: 8.9
